Measurements as given in US20220024982A1, “BICYCLIC PEPTIDE LIGANDS SPECIFIC FOR MT1-MMP” (BicycleTx Limited, priority 2018, published 2022).
Like-named read-outs stand apart in the source and are kept apart here.

What was measured:
[1] = biological target: MT1-MMP Hemopexin domain (PEX) (Homo sapiens, UniProt P50281); assay: MT1-MMP fluorescence polarisation competition binding assay; details: for Kd: read-out: Kd (nM ± 95% CI)
From the text: Due to their high affinities to the MT1-MMP Hemopexin domain (PEX), the fluoresceinated derivatives of 17-69-07 and 17-69-12 (denoted as 17-69-07-N040, 17-69-07-N041 and 17-69-12-N004) can be used for competition experiments (using FP for detection)
Here, a pre-formed complex of PEX with the fluorescent PEX-binding tracer is titrated with free, non-fluoresceinated bicyclic peptide. Since all 17-69-based peptides are expected to bind at the same site, the titrant will displace the fluorescent tracer from PEX. Dissociation of the complex can be measured quantitatively, and the Kd of the competitor (titrant) to the target protein determined. The advantage of the competition method is that the affinities of non-fluoresceinated bicyclic peptides can be determined accurately and rapidly.
Concentrations of tracer are usually at the Kd or below (here, 1 nM), and the binding protein (here, hemopexin of MT1-MMP) is at a 15-fold excess such that >90% of the tracer is bound. Subsequently, the non-fluorescent competitor bicyclic peptide (usually just the bicycle core sequence) is titrated, such that it displaces the fluorescent tracer from the target protein. The displacement of the tracer is measured and associated with a drop in fluorescence polarisation. The drop in fluorescence polarisation is proportional to the fraction of target protein bound with the non-fluorescent titrant, and thus is a measure of the affinity of titrant to target protein.
In certain experiments, collagen binding tracers (i.e. 17-88-N006 and 17-88-226-N002) were used in an analogous manner to the hemopexin binding tracers.
The raw data is fit to the analytical solution of the cubic equation that describes the equilibria between fluorescent tracer, titrant, and binding protein. The fit requires the value of the affinity of fluorescent tracer to the target protein, which can be determined separately by direct binding FP experiments (see previous section). The curve fitting was performed using Sigmaplot 12.0 and used an adapted version of the equation described by Zhi-Xin Wang (FEBS Letters 360 (1995) 111-114).

[2] = biological target: T1, human MT1 MMP14 protein, hemopexin domain (Homo sapiens, UniProt P50281); assay: SPR (Biacore) binding; details: Biacore 3000, 25° C., biotinylated protein on streptavidin CM5 chip
T1 construct: human MT1 MMP14 protein, hemopexin domain (obtained from Merck Millipore); purchased Merck Millipore
Experimental: Biacore experiments were performed to determine KD (nM) values of monomeric peptides binding to human MT1 MMP14 protein, hemopexin domain (obtained from Merck Millipore).
The protein was extensively desalted to remove uncoupled biotin using spin columns into PBS.
For analysis of peptide binding, a Biacore 3000 instrument was used utilising a CM5 chip (GE Healthcare). Streptavidin was immobilized on the chip using standard amine-coupling chemistry at 25° C. with HBS-N (10 mM HEPES, 0.15 M NaCl, pH 7.4) as the running buffer. Briefly, the carboxymethyl dextran surface was activated with a 7 minute injection of a 1:1 ratio of 0.4 M 1-ethyl-3-(3-dimethylaminopropyl) carbodiimide hydrochloride (EDC)/0.1 M N-hydroxy succinimide (NHS) at a flow rate of 10 μl/min. For capture of streptavidin, the protein was diluted to 0.2 mg/ml in 10 mM sodium acetate (pH 4.5) and captured by injecting 120 μl of streptavidin onto the activated chip surface. Residual activated groups were blocked with a 7 minute injection of 1 M ethanolamine (pH 8.5) and biotinylated MT1 MMP14 captured to a level of 1,200-1,800 RU. Buffer was changed to PBS/0.05% Tween 20 and a dilution series of the peptides was prepared in this buffer with a final DMSO concentration of 0.5%. The top peptide concentration was 100 nM with 6 further 2-fold dilutions. The SPR analysis was run at 25° C. at a flow rate of 50 μl/min with 60 seconds association and dissociation between 400 and 1,200 seconds depending upon the individual peptide. Data were corrected for DMSO excluded volume effects. All data were double-referenced for blank injections and reference surface using standard processing procedures and data processing and kinetic fitting were performed using Scrubber software, version 2.0c (BioLogic Software). Data were fitted using a simple 1:1 binding model allowing for mass transport effects where appropriate.

[3] = Plate 1, read-out: Plate 1 Ki (FP-comp)
[4] = Plate 2, read-out: Plate 2 Ki (FP-comp)
[5] = tracer 17-88-226-N002 (collagen binding tracer)
[6] = tracer 17-88-N006 (collagen binding tracer)
[7] = tracer 17-69-07-N040 (hemopexin binding tracer)

Substance: ALPP-(SEQ ID NO: 13)-A [17-120-09-T03]
- Ki [1, 3]: 78 nM
- Ki [1, 4]: 107 nM
- Kd [1, 5]: 32 ± 20.2 nM
- Kd [1, 6]: 35.6 nM
- Kd [2]: 14.8 nM

Substance: ALPP-(SEQ ID NO: 17) [BCY3959]
- Kd [2]: 27.7 nM

Substance: ALPP-(SEQ ID NO: 17)-A [BCY10288]
- Kd [2]: 52.5 nM

Substance: Ac-ALPP-(SEQ ID NO: 13) [Ac-(17-120-09-T03)]
- Kd [1, 5]: 18.6 ± 6.96 nM
- Kd [2]: 15.1 nM

Substance: ISSYG-(SEQ ID NO: 82)-A [17-129-01-T04]
- Kd [1, 7]: 705 nM

Substance: KVQ-(SEQ ID NO: 131)-A [17-126-38-T01]
- Kd [1, 7]: 162 nM

Substance: L-(SEQ ID NO: 93)-HA [17-129-12-T01]
- Kd [1, 7]: 187 nM

Substance: MAN-(SEQ ID NO: 100)-A [17-129-19-T01]
- Kd [1, 7]: 754 nM

Substance: MPPP-(SEQ ID NO: 42)-A [17-120-32-T01]
- Kd [1, 6]: 63.8 ± 26.5 nM

Substance: N-(SEQ ID NO: 96)-NA [17-129-15-T01]
- Kd [1, 7]: 278 nM

Substance: NPPP-(SEQ ID NO: 13)-A [17-120-09-T06]
- Kd [1, 6]: 49.8 nM

Substance: PLPP-(SEQ ID NO: 32)-A [17-120-22-T02]
- Kd [1, 6]: 46.1 ± 26.5 nM

Substance: Q-(SEQ ID NO: 95)-NA [17-129-14-T01]
- Kd [1, 7]: 246 ± 46.1 nM

Substance: QES-(SEQ ID NO: 99)-A [17-129-18-T03]
- Kd [1, 7]: 202 nM

Substance: QISP-(SEQ ID NO: 13)-A [17-120-09-T02]
- Kd [1, 6]: 55.2 nM

Substance: REE-(SEQ ID NO: 99)-A [17-129-18-T01]
- Kd [1, 7]: 138 ± 44 nM

Substance: RLPP-(SEQ ID NO: 41)-A [17-120-31-T02]
- Kd [1, 6]: 68.3 nM

Substance: RYMTR-(SEQ ID NO: 98)-A [17-129-17-T03]
- Kd [1, 7]: 312 nM

Substance: SHS-(SEQ ID NO: 127)-A [17-126-33-T02]
- Kd [1, 7]: 296 nM

Substance: SLV-(SEQ ID NO: 82)-A [17-129-01-T03]
- Kd [1, 7]: 598 nM

Substance: SMT-(SEQ ID NO: 82)-A [17-129-01-T02]
- Kd [1, 7]: 525 nM

Substance: SPPP-(SEQ ID NO: 13)-A [17-120-09-T05]
- Kd [1, 6]: 32.3 ± 6.81 nM

Substance: SPPP-(SEQ ID NO: 25)-A [17-120-15-T02]
- Kd [1, 6]: 76.7 ± 72.9 nM

Substance: SPPP-(SEQ ID NO: 40)-A [17-120-30-T01]
- Kd [1, 6]: 78.7 nM

Substance: SPPP-(SEQ ID NO: 43)-A [17-120-33-T01]
- Kd [1, 6]: 77.6 nM

Substance: SQN-(SEQ ID NO: 100)-A [17-129-19-T02]
- Kd [1, 7]: 458 nM

Substance: SQT-(SEQ ID NO: 82)-A [17-129-01-T01]
- Kd [1, 7]: 499 nM

Substance: SRM-(SEQ ID NO: 98)-A [17-129-17-T01]
- Kd [1, 7]: 418 nM

Substance: SRS-(SEQ ID NO: 98)-A [17-129-17-T02]
- Kd [1, 7]: 369 nM

Substance: Sar3-ALPP-(SEQ ID NO: 13) [Sar3-A-(17-120-09-T03)]
- Kd [1, 5]: 16.3 ± 5.73 nM

Substance: Sar3-ALPP-(SEQ ID NO: 14) [Sar3-A-(17-120-09-T03) HArg2]
- Kd [1, 5]: 26.6 ± 9.31 nM

Substance: Sar3-ALPP-(SEQ ID NO: 15) [Sar3-A-(17-120-09-T03) Arg9]
- Kd [1, 5]: 8.28 ± 3.53 nM

Substance: Sar3-ALPP-(SEQ ID NO: 16) [Sar3-A-(17-120-09-T03) HArg9]
- Kd [1, 5]: 30.9 ± 10 nM

Substance: T-(SEQ ID NO: 94)-NA [17-129-13-T01]
- Kd [1, 7]: 248 nM

Substance: WSP-(SEQ ID NO: 127)-A [17-126-33-T01]
- Kd [1, 7]: 244 nM

Substance: [Ac]-(SEQ ID NO: 17) [BCY9968]
- Kd [2]: 163 nM

Substance: [Ac]APP-(SEQ ID NO: 17) [BCY9934]
- Kd [2]: 36.9 nM

Substance: [Ac]EYP-(SEQ ID NO: 57) [BCY12405]
- Kd [2]: 14.7 nM

Substance: [Ac]LAP-(SEQ ID NO: 17) [BCY9935]
- Kd [2]: 39.2 nM

Substance: [Ac]LPA-(SEQ ID NO: 17) [BCY9936]
- Kd [2]: 38 nM

Substance: [Ac]LPP-(SEQ ID NO: 17) [BCY9933]
- Kd [2]: 30.7 nM

Substance: [Ac]LPP-(SEQ ID NO: 19) [BCY9938]
- Kd [2]: 80.9 nM

Substance: [Ac]LPP-(SEQ ID NO: 46) [BCY9937]
- Kd [2]: 77.8 nM

Substance: [Ac]LPP-(SEQ ID NO: 47) [BCY9943]
- Kd [2]: 299 nM

Substance: [Ac]LPP-(SEQ ID NO: 48) [BCY9945]
- Kd [2]: 1360 nM

Substance: [Ac]LPP-(SEQ ID NO: 49) [BCY9946]
- Kd [2]: 372 nM

Substance: [Ac]LPP-(SEQ ID NO: 50) [BCY9949]
- Kd [2]: 190 nM

Substance: [Ac]LPP-(SEQ ID NO: 51) [BCY9951]
- Kd [2]: 364 nM

Substance: [Ac]LPP-(SEQ ID NO: 52) [BCY9952]
- Kd [2]: 870 nM

Substance: [Ac]LPP-(SEQ ID NO: 53) [BCY9953]
- Kd [2]: 296 nM

Substance: [Ac]LPP-(SEQ ID NO: 54) [BCY9954]
- Kd [2]: 28.3 nM

Substance: [Ac]LPP-(SEQ ID NO: 55) [BCY9955]
- Kd [2]: 73.5 nM

Substance: [Ac]LPP-(SEQ ID NO: 56) [BCY9957]
- Kd [2]: 304 nM

Substance: [Ac]LPP-(SEQ ID NO: 57) [BCY9959]
- Kd [2]: 5.87 nM

Substance: [Ac]LPP-(SEQ ID NO: 58) [BCY9960]
- Kd [2]: 72.7 nM

Substance: [Ac]LPP-(SEQ ID NO: 59) [BCY9961]
- Kd [2]: 13000 nM

Substance: [Ac]LPP-(SEQ ID NO: 60) [BCY9963]
- Kd [2]: 7100 nM

Substance: [Ac]LPP-(SEQ ID NO: 61) [BCY9964]
- Kd [2]: 35 nM

Substance: [Ac]LPP-(SEQ ID NO: 62) [BCY9965]
- Ki [1, 3]: 76 nM
- Kd [2]: 77.6 nM

Substance: [Ac]LPP-(SEQ ID NO: 63) [BCY9966]
- Kd [2]: 240 nM

Substance: [Ac]LPP-(SEQ ID NO: 64) [BCY10223]
- Kd [2]: 400 nM

Substance: [Ac]LPP-(SEQ ID NO: 65) [BCY10224]
- Kd [2]: 97.8 nM

Substance: [Ac]LPP-(SEQ ID NO: 66) [BCY11149]
- Ki [1, 3]: 80 nM

Substance: [Ac]LPP-(SEQ ID NO: 67) [BCY11150]
- Ki [1, 3]: 396 nM

Substance: [Ac]LPP-(SEQ ID NO: 68) [BCY11151]
- Ki [1, 3]: 35 nM

Substance: [Ac]LPP-(SEQ ID NO: 69) [BCY11152]
- Ki [1, 3]: 68 nM

Substance: [Ac]LPP-(SEQ ID NO: 70) [BCY11153]
- Ki [1, 3]: 43 nM

Substance: [Ac]LPP-(SEQ ID NO: 71) [BCY11154]
- Ki [1, 3]: 129 nM

Substance: [Ac]LPP-(SEQ ID NO: 72) [BCY11155]
- Ki [1, 3]: 459 nM

Substance: [Ac]LPP-(SEQ ID NO: 73) [BCY11163]
- Ki [1, 3]: 54 nM

Substance: [Ac]LPP-(SEQ ID NO: 74) [BCY11158]
- Ki [1, 3]: 124 nM

Substance: [Ac]LPP-(SEQ ID NO: 75) [BCY11160]
- Ki [1, 4]: 289 nM

Substance: [Ac]LPY-(SEQ ID NO: 17) [BCY11148]
- Ki [1, 3]: 45 nM

Substance: [Ac]LP[dA]-(SEQ ID NO: 17) [BCY11167]
- Ki [1, 4]: 135 nM

Substance: [Ac]LYP-(SEQ ID NO: 17) [BCY11147]
- Ki [1, 3]: 53 nM

Substance: [Ac]LYP-(SEQ ID NO: 57) [BCY12401]
- Kd [2]: 10.8 nM

Substance: [Ac]LYP-(SEQ ID NO: 76) [BCY12402]
- Kd [2]: 8.9 nM

Substance: [Ac]LYP-(SEQ ID NO: 77) [BCY12403]
- Kd [2]: 56.1 nM

Substance: [Ac]LYP-(SEQ ID NO: 78) [BCY12404]
- Kd [2]: 27.4 nM

Substance: [Ac]L[dA]P-(SEQ ID NO: 17) [BCY11166]
- Ki [1, 4]: 92 nM

Substance: [Ac][dA]PP-(SEQ ID NO: 17) [BCY11165]
- Ki [1, 4]: 72 nM
